Assay [1] concerns the target Stat3 (as in the EMSA of Table 1), P40763. The assay can be described thus: EMSA: IC50 of peptide 1 against IC50 of peptide 2.
For assay [2] the target is unchanged. As to the kind of experiment: EMSA: inhibition of Stat3 dimerization and DNA binding, average of two determinations.

The record followed here is patent US20070010428A1, “Inhibitors of signal transduction and activator of transcription 3” (priority 2004, published 2007).

YLPQTV (modifications not checked) [Ac-pTyr-Leu-Pro-Gln-Thr-Val-NH2]: the fold increase in potency against Peptide 2 (Ac-pTyr-Leu-Lys-Thr-Lys-Phe-NH2) in assay [1] was over 100 fold. Further, the IC50 in assay [2] came out at 150 nM.
